Assay results from patent US9340577B2, “HLA binding motifs and peptides and their uses” (priority 1992, dated 2016).
Like-named read-outs stand apart in the source and are kept apart here.

Tests used:
Assay in all cases: biochemical
B*0701 = B*0701 (Homo sapiens, UniProt P01889)
DR4w4 (DRB1*0401) = DR4w4 (DRB1*0401) (Homo sapiens, UniProt P01903+P01911, A100K/A169T/F76Y/I96L/K127E/L162R/M171V/N62H/P40V/Q125Y/R42H/S133A/S149N/S66Y/V115G/V209L/W38E); type: binding
A*2902 = A*2902 (Homo sapiens, UniProt P04439, A270S/D101N/D185E/E176V/E277Q/E87Q/F33T/G231S/H175R/I121M/I218V/I322F/K168Q/L300P/L318F/M331R/P208A/P217A/Q86L/T323A/T345S/V100A/V358M); type: binding
A*3002 = A*3002 (Homo sapiens, UniProt P04439, D101N/D140H/D185E/E176R/F33S/G80R/H175R/K168Q/Q94H/R138E/R41S/V100E); type: binding
DRB1*0901 = DRB1*0901 (Homo sapiens, UniProt P01903+P01911, A100R/A103E/D57H/D86V/F55Y/F60I/F76Y/I96F/K127E/L162R/M171V/P40D/Q125H/Q99R/R33Q/R42F/S133A/S66N/T210M/V115G/W38K/Y107V/Y59G/Y89S)
DRB1*0405 = DRB1*0405 (Homo sapiens, UniProt P01903+P01911, A100R/A169T/D86S/F76Y/I96L/K127E/L162R/M171V/N62H/P40V/Q125Y/R42H/S133A/S149N/S66Y/V115G/V209L/W38E); type: binding
A*6802 = A*6802 (Homo sapiens, UniProt P04439, A269V/D140Y/D185E/E176V/E277Q/E87N/F33Y/G231S/I121R/I166T/I218V/L180W/L300P/L318F/N151K/P208A/P217A/Q86R/R138H/R169H/S129P/T345S/V36M); type: binding
DRB1*1302 = DRB1*1302 (Homo sapiens, UniProt P01903+P01911, A100E/A169T/K41T/L162R/M171V/P40S/Q125H/Q178H/Q39Y/Q99D/R42S/S66N/T262R/V115G/W38E/Y61H)
HLA-A1 (A*0101) = HLA-A1 (A*0101) (Homo sapiens, UniProt P04439, A114D/A174V/A182V/D101N/D185E/E176A/E190D/L180R/Q94H/R68K/S129P/T187R/V100A/V91M/W191G)
[1] = B*0701 (nM), Binding of peptides to B7-like supermotif alleles, Table 36

Work on CC[C@H](C)[C@H](NC(=O)[C@@H](NC(=O)[C@H](Cc1ccc(O)cc1)NC(=O)[C@H](CC(C)C)NC(=O)[C@H](Cc1c[nH]cn1)NC(=O)[C@H](CO)NC(=O)[C@@H](NC(=O)[C@@H]1CCCN1C(=O)[C@@H](N)C(C)C)[C@@H](C)CC)[C@@H](C)CC)C(=O)O yielded an IC50 (B*0701) of 108 nM.
In the case of “787.38 (AADFGIFIDFIIA; non-natural residue (43)) [Peptide 787.38]”, the IC50 (DR4w4 (DRB1*0401); read-out: DRB1*0401) is reported as 235 nM.
For CC(C)C[C@H](NC(=O)CNC(=O)[C@H](CC(C)C)NC(=O)[C@H](CCCNC(=N)N)NC(=O)CNC(=O)[C@H](CCCNC(=N)N)NC(=O)[C@H](CO)NC(=O)[C@@H]1CCCN1C(=O)[C@@H](N)CC(=O)O)C(=O)O [15.038], the IC50 (B*0701; [1]) was 45 nM.
With CC[C@H](C)[C@H](NC(=O)[C@H](C)NC(=O)[C@@H]1CCCN1C(=O)[C@H](CC(N)=O)NC(=O)CNC(=O)[C@@H]1CCCN1C(=O)[C@@H](N)CC(C)C)C(=O)N[C@@H](C)C(=O)N[C@@H](CO)C(=O)N[C@@H](CC(C)C)C(=O)O [15.236] the IC50 (B*0701; B*0701 (nM), binding of B7-like supermotif 10-mer peptides to purified HLA-B*0701) was 752 nM.
In the case of CC(C)C[C@H](NC(=O)[C@H](CC(C)C)NC(=O)[C@H](CC(C)C)NC(=O)[C@@H]1CCCN1C(=O)[C@H](C)N)C(=O)N[C@@H](C)C(=O)N[C@@H](CCCNC(=N)N)C(=O)N[C@@H](C)C(=O)N[C@@H](C)C(=O)O [16.032], the IC50 (B*0701; [1]) is reported as 257 nM.
With CC[C@H](C)[C@H](NC(=O)[C@@H]1CCCN1C(=O)[C@@H](N)CC(C)C)C(=O)N[C@@H](Cc1c[nH]cn1)C(=O)N[C@H](C(=O)N[C@@H](C)C(=O)N[C@@H](CCC(=O)O)C(=O)N[C@@H](CC(C)C)C(=O)N[C@@H](CC(C)C)C(=O)N[C@@H](C)C(=O)O)[C@@H](C)O [16.181] the IC50 (B*0701; [1]) was 3090 nM.
CC[C@H](C)[C@H](NC(=O)[C@H](CCC(N)=O)NC(=O)[C@@H](NC(=O)[C@H](CO)NC(=O)[C@@H](N)CC(=O)O)C(C)C)C(=O)N[C@@H](CC(C)C)C(=O)N[C@H](C(=O)NCC(=O)N[C@@H](Cc1ccc(O)cc1)C(=O)O)C(C)C [Peptide 86.0147] showed an IC50 (A*2902) of 13600 nM and an IC50 (A*3002) of 138 nM.
In the case of CC[C@H](C)[C@H](N)C(=O)N[C@@H](CCC(=O)O)C(=O)N[C@@H](Cc1ccccc1)C(=O)N[C@H](C(=O)N[C@H](C(=O)N[C@@H](Cc1ccccc1)C(=O)N[C@@H](CC(C)C)C(=O)NCC(=O)N[C@@H](C)C(=O)N[C@@H](CC(C)C)C(=O)N[C@@H](CCCCN)C(=O)N[C@@H](CO)C(=O)N[C@@H](Cc1ccccc1)C(=O)N[C@@H](CC(C)C)C(=O)N[C@@H](CCCCN)C(=O)O)[C@@H](C)O)[C@@H](C)CC [Peptide 89.0033], the IC50 (DRB1*0901) is reported as 15200 nM.
CC[C@H](C)[C@H](NC(=O)[C@H](Cc1c[nH]cn1)NC(=O)[C@H](C)NC(=O)[C@H](Cc1ccc(O)cc1)NC(=O)[C@H](CC(C)C)NC(=O)[C@@H](NC(=O)[C@H](C)NC(=O)[C@@H]1CCCN1C(=O)[C@H](CCCCN)NC(=O)[C@@H](NC(=O)[C@H](CC(C)C)NC(=O)[C@@H](NC(=O)[C@@H](N)CCCCN)[C@@H](C)O)[C@@H](C)CC)[C@@H](C)O)C(=O)N[C@@H](CCC(N)=O)C(=O)N[C@@H](CS)C(=O)O [Peptide 89.0083] was tested, and the IC50 (DRB1*0901) was 1170 nM.
Work on CC[C@H](C)[C@H](N)C(=O)N[C@@H](CCCCN)C(=O)N[C@@H](Cc1ccccc1)C(=O)N[C@@H](Cc1ccccc1)C(=O)N[C@@H](CCC(N)=O)C(=O)NCC(=O)N[C@@H](CO)C(=O)N[C@H](C(=O)N[C@H](C(=O)N[C@@H](CO)C(=O)N[C@@H](Cc1ccccc1)C(=O)N[C@H](C(=O)N[C@@H](CC(N)=O)C(=O)N[C@@H](CO)C(=O)N[C@@H](CCC(N)=O)C(=O)O)C(C)C)[C@@H](C)CC)C(C)C [Peptide 89.0136] yielded an IC50 (DR4w4 (DRB1*0401)) of 9680 nM.
CC[C@H](C)[C@H](NC(=O)[C@@H](NC(=O)[C@H](CCC(N)=O)NC(=O)[C@H](Cc1ccccc1)NC(=O)[C@H](C)N)C(C)C)C(=O)N[C@@H](CCC(=O)O)C(=O)N[C@@H](CC(C)C)C(=O)N[C@@H](CCC(N)=O)C(=O)N[C@@H](CCSC)C(=O)N[C@@H](C)C(=O)N[C@@H](CC(C)C)C(=O)N[C@@H](CCC(=O)O)C(=O)N[C@H](C(=O)N[C@@H](CC(C)C)C(=O)N[C@@H](CO)C(=O)O)[C@@H](C)O [Peptide 89.0181] showed an IC50 (DRB1*0901) of 257 nM.
For CC[C@H](C)[C@H](NC(=O)[C@H](CCCCN)NC(=O)[C@H](CCC(=O)O)NC(=O)CNC(=O)[C@H](CC(=O)O)NC(=O)[C@H](CS)NC(=O)[C@H](Cc1c[nH]c2ccccc12)NC(=O)[C@H](Cc1ccc(O)cc1)NC(=O)[C@H](Cc1ccc(O)cc1)NC(=O)[C@H](CC(C)C)NC(=O)CN)C(=O)N[C@@H](Cc1ccc(O)cc1)C(=O)N[C@@H](Cc1ccccc1)C(=O)N[C@H](C(=O)N[C@@H](CCCCN)C(=O)O)C(C)C [Peptide 90.0226], the IC50 (DR4w4 (DRB1*0401)) was 1470 nM and the IC50 (DRB1*0405) was 4060 nM.
For CC[C@H](C)[C@H](NC(=O)[C@H](CCC(=O)O)NC(=O)[C@@H](N)CO)C(=O)N[C@@H](Cc1ccc(O)cc1)C(=O)N[C@H](C(=O)N[C@H](C(=O)N[C@@H](CCC(=O)O)C(=O)N[C@@H](CCC(=O)O)C(=O)N[C@H](C(=O)N[C@H](C(=O)N[C@@H](CS)C(=O)N[C@H](C(=O)N[C@@H](CC(C)C)C(=O)N[C@H](C(=O)N[C@@H](C)C(=O)O)C(C)C)[C@@H](C)O)[C@@H](C)O)[C@@H](C)O)[C@@H](C)CC)[C@@H](C)CC [Peptide 90.0250], the IC50 (DR4w4 (DRB1*0401)) was 166 nM.
For CC(C)C[C@H](NC(=O)[C@H](CO)NC(=O)[C@H](CC(C)C)NC(=O)[C@@H](N)CO)C(=O)NCC(=O)N[C@@H](Cc1ccccc1)C(=O)N[C@@H](CC(C)C)C(=O)N[C@@H](Cc1ccccc1)C(=O)N[C@H](C(=O)O)C(C)C [Peptide 1419.50], the IC50 (A*6802) was > 20000 nM.
In the case of CC(C)C[C@H](NC(=O)CN)C(=O)N[C@@H](Cc1c[nH]cn1)C(=O)NCC(=O)N[C@@H](CCC(N)=O)C(=O)N[C@@H](CC(=O)O)C(=O)N[C@@H](CC(C)C)C(=O)N[C@@H](Cc1ccccc1)C(=O)NCC(=O)N[C@H](C(=O)O)C(C)C [Peptide 1419.62], the IC50 (A*6802) is reported as > 20000 nM.
CC(C)C[C@H](NC(=O)[C@H](CCC(=O)O)NC(=O)[C@H](Cc1c[nH]cn1)NC(=O)[C@H](CC(C)C)NC(=O)[C@@H](NC(=O)[C@H](CCCNC(=N)N)NC(=O)[C@@H]1CCCN1C(=O)[C@H](CCCNC(=N)N)NC(=O)[C@@H](N)[C@@H](C)O)[C@@H](C)O)C(=O)N[C@@H](CS)C(=O)N[C@@H](CCC(=O)O)C(=O)N[C@H](C(=O)N[C@@H](CC(C)C)C(=O)N[C@@H](CCC(=O)O)C(=O)N[C@@H](CCC(=O)O)C(=O)O)C(C)C [Peptide 1543.42] was tested, and the IC50 (DR4w4 (DRB1*0401)) was 13100 nM.
CC[C@H](C)[C@H](NC(=O)CNC(=O)[C@H](CCC(=O)O)NC(=O)[C@H](Cc1c[nH]cn1)NC(=O)[C@@H](N)C(C)C)C(=O)N[C@@H](CCCNC(=N)N)C(=O)N[C@H](C(=O)N[C@@H](Cc1ccc(O)cc1)C(=O)N[C@@H](Cc1ccccc1)C(=O)N[C@H](C(=O)N[C@@H](CCC(N)=O)C(=O)N[C@@H](Cc1ccccc1)C(=O)N[C@@H](CCCCN)C(=O)N[C@@H](CC(=O)O)C(=O)N[C@@H](CC(=O)O)C(=O)O)C(C)C)[C@@H](C)O [Peptide 1601.05] gave an IC50 (DR4w4 (DRB1*0401)) of 12100 nM and an IC50 (DRB1*1302) of 16900 nM.
In the case of C[C@H](N)C(=O)N[C@@H](C)C(=O)N[C@@H](CO)C(=O)N[C@@H](CC(N)=O)C(=O)N1CCC[C@H]1C(=O)N1CCC[C@H]1C(=O)N[C@@H](C)C(=O)N[C@@H](CCC(N)=O)C(=O)N[C@@H](Cc1ccc(O)cc1)C(=O)O [Peptide 1610.04], the IC50 (A*2902) is reported as > 20000 nM, the IC50 (A*3002) is reported as 210 nM and the IC50 (HLA-A1 (A*0101)) is reported as > 20000 nM.
With CC(C)C[C@H](N)C(=O)N[C@H](C(=O)N[C@@H](Cc1ccccc1)C(=O)N[C@@H](Cc1c[nH]c2ccccc12)C(=O)N[C@@H](CC(N)=O)C(=O)N1CCC[C@H]1C(=O)N1CCC[C@H]1C(=O)N[C@H](C(=O)N[C@H](C(=O)O)C(C)C)[C@@H](C)O)[C@@H](C)O [Peptide 9013.0006] the IC50 (A*6802) was 14 nM.
CC(C)C[C@H](NC(=O)[C@@H](NC(=O)[C@H](CCC(=O)O)NC(=O)[C@H](CCCCN)NC(=O)CNC(=O)[C@H](CCC(=O)O)NC(=O)[C@H](C)NC(=O)[C@@H](NC(=O)[C@@H](N)CC(N)=O)C(C)C)C(C)C)C(=O)N[C@H](C(=O)O)C(C)C [Peptide 9013.0133] showed an IC50 (A*6802) of 352 nM.
With CC[C@H](C)[C@H](NC(=O)[C@@H](NC(=O)[C@@H](NC(=O)[C@@H](NC(=O)[C@H](CC(C)C)NC(=O)[C@@H](N)[C@@H](C)O)C(C)C)[C@@H](C)O)[C@@H](C)O)C(=O)N[C@H](C(=O)N[C@H](C(=O)N[C@@H](Cc1ccc(O)cc1)C(=O)N[C@@H](C)C(=O)O)C(C)C)[C@@H](C)O [Peptide 9013.0193] the IC50 (A*6802) was 194 nM.
